# Experiments:
# [1] = system: Human pulmonary artery epithelial cells (HPAEC); experiment: HPAEC apoptosis induced by serum withdrawal (flow cytometry Annexin V, TUNEL); type: cell-based; details: pretreatment 100-200 ng/ml for 2 hours; flow cytometry and TUNEL assay
# Procedure: (§1) The inventors investigated the effect of BMPR2 signaling on pulmonary endothelial cell proliferation and survival. Human pulmonary artery […] cells (HPAEC) were grown in EBM-2 medium supplemented with 2% FBS and growth factors (Clonetics). Apoptosis was induced either by serum withdrawal (see FIG. 17) or exposure of cells to TNFα. Cells were pretreated with BMP-2 or BMP-7 (100-200 ng/ml) for 2 hours and grown in the presence or absence serum or TNF (10-20 ng/ml) for 24-48 hours. Apoptosis was evaluated by three independent methods: 1) flow cytometry using Annexin V, a Ca2+ dependent phospholipid-binding protein with affinity for phosphatidylserine (PS; translocation of PS from the inner leaflet of plasma membrane to the outer layer occurs during the early stage of apoptosis), 2) TUNEL assay and, 3) caspase activity assay.
# [2] = system: Human pulmonary artery cells (HPAEC); experiment: HPAEC apoptosis induced by TNF (caspase activity assay); type: cell-based; details: pretreatment 100-200 ng/ml for 2 hours, TNF 10-20 ng/ml
# Procedure: as §1
molecule,measurement,setting,value
"BMP2: bone morphogenetic protein (protein, UniProt P12643 283-396, looked up) Bone morphogenetic protein 2: QAKHKQRKRLKSSCKRHPLYVDFSDVGWNDWIVAPPGYHAFYCHGECPFPLADHLNSTNHAIVQTLVNSVNSKIPKACCVPTELSAISMLYLDENEKVVLKNYQDMVVEGCGCR",apoptosis induced by serum withdrawal,[1],protected the cells from apoptosis
same,apoptosis induced by TNF treatment,[2],protect the cells from apoptosis

# From patent publication US20080194491A1, “Methods of Diagnosing, Preventing, and Treating Early Onset of Pulmonary Hypertension” (priority 2002, published 2008)
